Experimental data reported in BindingDB's records for doi:10.1016/0024-3205(83)90740-3 (University of Toronto, 1983).

Amino acid sequences for entries named in this document (tags omitted).
UniProt P14842, whole entry: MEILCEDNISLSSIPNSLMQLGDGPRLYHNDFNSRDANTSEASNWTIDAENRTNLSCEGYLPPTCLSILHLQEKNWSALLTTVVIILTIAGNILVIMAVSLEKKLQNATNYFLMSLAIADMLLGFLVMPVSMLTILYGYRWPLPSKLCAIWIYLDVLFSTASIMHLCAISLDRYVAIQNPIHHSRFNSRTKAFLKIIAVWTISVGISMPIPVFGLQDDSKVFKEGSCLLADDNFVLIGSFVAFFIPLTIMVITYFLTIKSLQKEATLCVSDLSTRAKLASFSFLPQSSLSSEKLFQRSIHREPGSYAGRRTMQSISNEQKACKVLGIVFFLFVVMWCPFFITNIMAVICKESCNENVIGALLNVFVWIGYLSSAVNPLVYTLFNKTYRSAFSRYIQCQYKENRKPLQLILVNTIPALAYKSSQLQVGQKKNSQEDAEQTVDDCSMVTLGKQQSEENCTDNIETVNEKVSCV

Biological target: 5-hydroxytryptamine receptor 2A (Rattus norvegicus, UniProt P14842)

O=C(CCCN1CCC2(CC1)C(=O)NCN2c1ccccc1)c1ccc(F)cc1 [8-[4-(4-fluorophenyl)-4-oxidanylidene-butyl]-1-phenyl-1,3,8-triazaspiro[4.5]decan-4-one]
Ki: 500 pM
